Experiment: T1 and T2 relaxivity of water at 4.7 Tesla
Type: physicochemical

Q: For “gadolinium chelate of 2,2′,2″,2′″-[(pyridine-2,6-diyl)bis(methylenenitrilo) tetrakis(acetic acid) [reference compound]”, which T1 relaxivity is on record?
A: 6.0 ± 0.2 mM⁻¹ s⁻¹

Q: What about the T2 relaxivity of the same substance?
A: 6.6 ± 0.8 mM⁻¹ s⁻¹

Reference: US20080305049A1, “Mri Contrast Agents for Diagnosis and Prognosis of Tumors” (priority 2005, published 2008)
